Experimental data published in US7446104B2, “Phenylalkynes” (Ortho-McNeil Pharmaceutical, Inc., priority 2001, dated 2008).

By UniProt entry, the sequences of proteins in these tests, tags left out. Where a name states a change or a piece, a line headed by the entry shows the natural chain unless it says otherwise.
UniProt Q9Y5N1: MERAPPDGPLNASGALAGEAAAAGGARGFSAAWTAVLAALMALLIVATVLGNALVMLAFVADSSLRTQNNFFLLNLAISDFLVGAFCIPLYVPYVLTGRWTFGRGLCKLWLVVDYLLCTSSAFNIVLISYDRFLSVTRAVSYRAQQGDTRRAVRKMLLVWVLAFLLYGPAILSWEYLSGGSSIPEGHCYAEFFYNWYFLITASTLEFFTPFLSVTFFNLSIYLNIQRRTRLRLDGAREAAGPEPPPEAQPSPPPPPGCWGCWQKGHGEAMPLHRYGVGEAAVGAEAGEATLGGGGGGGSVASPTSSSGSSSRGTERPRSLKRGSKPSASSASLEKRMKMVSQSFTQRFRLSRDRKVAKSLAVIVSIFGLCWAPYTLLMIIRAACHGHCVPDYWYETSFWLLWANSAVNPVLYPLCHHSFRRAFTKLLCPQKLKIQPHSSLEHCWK

Biological target: human histamine H3 receptor (Homo sapiens, UniProt Q9Y5N1)
Assay: [3H]-N-methylhistamine binding
Details: membranes of histamine H3 receptor-expressing SK-N-MC cells; 0.8 nM [3H]-N-methylhistamine; 45 min at 25° C.

Molecule `O=c1[nH]c2ccccc2n1C1CCN(Cc2cccc(C#CCCN3CCCCC3)c2)CC1` has a Ki of 1 nM.
